Experimental findings from patent US12102709B2, “Anti-obesity agent, anti-dementia agent, deodorant, anti-aging agent, anti-glycation agent, anti-type I allergy agent, hypotensive agent, flavor improving agent, muscle enhancing agent, and bone metabolism improving agent” (Mitsui Sugar Co., Ltd., priority 2018, dated 2024) are described below.

The test system of this assay is MC3T3-E1 cells. Nature of the assay: Osteoblast differentiation promotion test (ALP activity). It counts as cell-based, mouse. The note with it: extracts 100 μg/mL. As to the method:
(Cells) • Mouse calvaria-derived cells MC3T3-E1 (Riken Cell Bank, RCB1126)
MC3T3-E1 cells were cultivated using a growth culture medium in a T-75 flask (75 cm^2 U-shaped canted neck cell culture flask, commercially available from Corning Co., Ltd.). The T-75 flask was put into a CO2 incubator (5% CO2, 37° C., wet) and the C2C12 cells were cultured. The culture medium was replaced every other day, and when an 80% confluence was reached, the cells were collected and used for the test.
Promoted osteoblast differentiation in MC3T3-E1 cells was confirmed using an alkaline phosphatase (ALP) activity, which is one of osteoblast differentiation markers, as an index.
Pre-cultured MC3T3-E1 cells were adjusted in a culture medium at 1.2×10^5 cells/0.2 mL/well and seeded in a 48-well plate. The next day, the culture medium was replaced with a culture medium containing 100 μg/mL of the extract A (Example j1-1), a culture medium containing 100 μg/mL of the extract W and 1% (v/v) ethanol (Example j1-2), a culture medium containing no extract (Comparative Example j1-1), a culture medium containing no extract but containing 1% (v/v) ethanol (Comparative Example j1-2), or a culture medium containing BMP-2 (Positive Control j1), and they were cultured for 7 days, for 14 days, and for 21 days. After culturing each day, the cells were washed once with PBS, and each plate was frozen and stored. The culture medium was replaced every 3 to 4 days.
The cells after freezing and storage were washed with PBS and then lysed with a cell lysis agent (Cell-LyEX1 containing 2 mM phenylmethylsulfonyl fluoride (PMSF)) at 100 μL/well. […] The amount of ALP in the cells was measured using an alkaline phosphatase activity measurement kit (LabAssay ALP). In this kit, the ALP activity was measured from the amount of p-nitrophenol per unit protein amount produced within a certain time. The amount of proteins in the solution was measured using a Micro BCA Protein Assay Reagent Kit. The test was performed 5 times, and the average value (n=5) of ALP activities was calculated.

The substance “Positive Control j1: Recombinant bone morphogenetic protein (Bone Morphogenetic Protein-2 (BMP-2))” came in with an ALP activity (On the 7th day of culture) of 0.053 ± 0.006 unit/μg proteins, an ALP activity (On the 14th day of culture) of 0.217 ± 0.024 unit/μg proteins and an ALP activity (On the 21st day of culture) of 0.287 ± 0.005 unit/μg proteins.
